# Read-outs that look alike come from different tables or passages of the source.
# By UniProt entry, the sequences of proteins in these tests, tags left out. Residues count along the entry.
# UniProt P00742, 41-179 limits assumed: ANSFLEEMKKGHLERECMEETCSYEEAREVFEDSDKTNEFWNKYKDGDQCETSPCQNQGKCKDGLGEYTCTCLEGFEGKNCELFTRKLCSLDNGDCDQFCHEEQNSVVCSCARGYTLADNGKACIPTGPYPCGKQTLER
# UniProt P00742, 235-488 limits assumed: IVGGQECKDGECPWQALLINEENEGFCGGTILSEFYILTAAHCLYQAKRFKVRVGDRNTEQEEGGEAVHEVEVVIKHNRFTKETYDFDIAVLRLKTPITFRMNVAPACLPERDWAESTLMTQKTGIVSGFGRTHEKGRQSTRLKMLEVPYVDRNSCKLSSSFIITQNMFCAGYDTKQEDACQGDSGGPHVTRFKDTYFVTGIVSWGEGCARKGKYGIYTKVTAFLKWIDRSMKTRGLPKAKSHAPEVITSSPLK
# UniProt P00761, 9-231 limits assumed: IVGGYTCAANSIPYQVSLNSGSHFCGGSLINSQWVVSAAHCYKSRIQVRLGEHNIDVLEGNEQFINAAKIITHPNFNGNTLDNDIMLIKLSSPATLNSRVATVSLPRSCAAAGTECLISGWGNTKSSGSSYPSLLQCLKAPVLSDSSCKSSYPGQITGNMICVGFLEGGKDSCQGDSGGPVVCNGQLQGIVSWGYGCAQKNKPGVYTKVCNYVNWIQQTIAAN
# UniProt P08709, 61-212 limits assumed: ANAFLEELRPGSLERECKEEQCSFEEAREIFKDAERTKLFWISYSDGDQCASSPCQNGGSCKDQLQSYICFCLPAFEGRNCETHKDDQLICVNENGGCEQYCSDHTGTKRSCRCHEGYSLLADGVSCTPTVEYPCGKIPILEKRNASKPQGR
# UniProt P08709, 213-466 limits assumed: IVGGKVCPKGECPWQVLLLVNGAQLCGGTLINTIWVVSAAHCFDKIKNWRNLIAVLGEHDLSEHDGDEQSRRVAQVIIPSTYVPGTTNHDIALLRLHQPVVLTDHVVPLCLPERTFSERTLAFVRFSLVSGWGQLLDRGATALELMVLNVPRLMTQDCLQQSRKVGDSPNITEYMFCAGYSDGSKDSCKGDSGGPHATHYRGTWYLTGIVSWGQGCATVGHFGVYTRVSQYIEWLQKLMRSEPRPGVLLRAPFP
# UniProt P13726, 33-251 partner limits assumed: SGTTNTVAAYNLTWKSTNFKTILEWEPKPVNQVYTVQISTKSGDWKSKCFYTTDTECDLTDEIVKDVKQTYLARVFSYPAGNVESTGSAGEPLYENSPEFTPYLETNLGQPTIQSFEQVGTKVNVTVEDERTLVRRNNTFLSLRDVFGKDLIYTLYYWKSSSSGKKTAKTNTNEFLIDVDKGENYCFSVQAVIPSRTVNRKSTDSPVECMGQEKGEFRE
# How the values were obtained:
# Human factor Xa = Human factor Xa (Homo sapiens, UniProt P00742); assay: Xa Assay; assay type: biochemical; settings: for % Inhibition Factor Xa at 100 μM: at 100 μM inhibitor; for IC50: read-out: IC50 Factor Xa
# [1] = molecular target: Trypsin (type IX from porcine pancreas) (Sus scrofa, UniProt P00761); assay: Trypsin Assay; settings: read-out: IC50 Trpysin II
# [2] = molecular target: recombinant soluble tissue factor and recombinant human factor VIIa (TF-VIIa) (Homo sapiens, UniProt P08709); assay: TF-VIIa Assay; assay type: biochemical
# [3] = read-out: IC50 TF-VIIa, cell printed 'at 100 μM' without %, cell adds 'at 100 μM'
SMILES,% Inhibition Factor Xa at 100 μM (Human factor Xa) [% at 100 μM],IC50 (Human factor Xa) [µM],IC50 [1] [µM],IC50 ([2]; read-out: IC50 TF-VIIa) [µM],"IC50 [2, 3] [µM]",IC50 ([1]; cells without % sign) [µM],"IC50 ([2]; read-out: IC50 TF-VIIa, cells without % sign) [µM]"
N=C(N)c1ccc(CNC(=O)Cn2c(-c3cccc(N)c3)c(Cl)nc(NC(CC(=O)O)c3ccccc3)c2=O)cc1 (stereo not shown),21,–,–,–,–,–,–
N=C(N)c1ccc(CNC(=O)Cn2c(-c3ccccc3C(F)(F)F)c(Cl)nc(NCCc3cccc(Cl)c3)c2=O)cc1,–,> 30,4.1,4.1,–,–,–
N=C(N)c1ccc(CNC(=O)Cn2c(-c3cccc(C(F)(F)F)c3)c(Cl)nc(NCCc3cccc(Cl)c3)c2=O)cc1,–,> 30,1.6,3.6,–,–,–
N=C(N)c1ccc(CNC(=O)Cn2c(-c3cccs3)c(Cl)nc(NCCc3cccc(Cl)c3)c2=O)cc1,–,> 30,1.4,1.8,–,–,–
N=C(N)c1ccc(CNC(=O)Cn2c(-c3cccc(F)c3)c(Cl)nc(NCCc3cccc(Cl)c3)c2=O)cc1,–,> 30,1.2,2.9,–,–,–
N=C(N)c1ccc(CNC(=O)Cn2c(-c3sccc3Br)c(Cl)nc(NCCc3cccc(Cl)c3)c2=O)cc1,–,> 30,2.3,1.6,–,–,–
N=C(N)c1ccc(CNC(=O)Cn2c(-c3cccc(N)c3)c(Cl)nc(NCCC(=O)O)c2=O)cc1,27,–,–,–,0.21,–,–
N=C(N)c1ccc(CNC(=O)Cn2c(-c3ccc(C(F)(F)F)cc3)c(Cl)nc(NCCc3cccc(Cl)c3)c2=O)cc1,–,> 30,1.4,–,–,–,–
N=C(N)c1ccc(CNC(=O)Cn2c(-c3cccc(N)c3)c(Cl)nc(NCC(=O)O)c2=O)cc1,22,–,–,–,0.09,–,–
N=C(N)c1ccc(CNC(=O)Cn2c(-c3ccccc3)c(Cl)nc(NCC34CC5CC(CC(C5)C3)C4)c2=O)cc1,–,–,–,–,–,0.2,5
COc1cccc(-c2c(Cl)nc(NCCc3cccc(Cl)c3)c(=O)n2CC(=O)NCc2ccc(C(=N)N)cc2)c1,–,> 30,1,2.6,–,–,–
N=C(N)c1ccc(CNC(=O)Cn2c(-c3ccccc3)c(Cl)nc(NC34CC5CC(CC(C5)C3)C4)c2=O)cc1,–,–,–,–,–,0.3,–
N=C(N)c1ccc(CNC(=O)Cn2c(-c3cccc(Br)c3)c(Cl)nc(NCCc3cccc(Cl)c3)c2=O)cc1,–,> 30,1.3,4.8,–,–,–
N=C(N)c1ccc(CNC(=O)Cn2c(-c3ccc(F)cc3)c(Cl)nc(NCCc3cccc(Cl)c3)c2=O)cc1,–,> 30,1.1,6.8,–,–,–
N=C(N)c1ccc(CNC(=O)Cn2c(-c3ccccc3F)c(Cl)nc(NCCc3cccc(Cl)c3)c2=O)cc1,–,> 30,1.8,3.1,–,–,–
COc1ccccc1-c1c(Cl)nc(NCCc2cccc(Cl)c2)c(=O)n1CC(=O)NCc1ccc(C(=N)N)cc1,–,> 30,1.4,1.8,–,–,–

# — patent publication US6908919B2, “Substituted polycyclic aryl and heteroaryl pyrazinones useful for selective inhibition of the coagulation cascade” (Pharmacia Corporation, priority 1999, dated 2005)
